Structures are written as SMILES.

Sequences of proteins named here, by UniProt entry; tags and fusion partners are left off.
UniProt P13569, whole entry: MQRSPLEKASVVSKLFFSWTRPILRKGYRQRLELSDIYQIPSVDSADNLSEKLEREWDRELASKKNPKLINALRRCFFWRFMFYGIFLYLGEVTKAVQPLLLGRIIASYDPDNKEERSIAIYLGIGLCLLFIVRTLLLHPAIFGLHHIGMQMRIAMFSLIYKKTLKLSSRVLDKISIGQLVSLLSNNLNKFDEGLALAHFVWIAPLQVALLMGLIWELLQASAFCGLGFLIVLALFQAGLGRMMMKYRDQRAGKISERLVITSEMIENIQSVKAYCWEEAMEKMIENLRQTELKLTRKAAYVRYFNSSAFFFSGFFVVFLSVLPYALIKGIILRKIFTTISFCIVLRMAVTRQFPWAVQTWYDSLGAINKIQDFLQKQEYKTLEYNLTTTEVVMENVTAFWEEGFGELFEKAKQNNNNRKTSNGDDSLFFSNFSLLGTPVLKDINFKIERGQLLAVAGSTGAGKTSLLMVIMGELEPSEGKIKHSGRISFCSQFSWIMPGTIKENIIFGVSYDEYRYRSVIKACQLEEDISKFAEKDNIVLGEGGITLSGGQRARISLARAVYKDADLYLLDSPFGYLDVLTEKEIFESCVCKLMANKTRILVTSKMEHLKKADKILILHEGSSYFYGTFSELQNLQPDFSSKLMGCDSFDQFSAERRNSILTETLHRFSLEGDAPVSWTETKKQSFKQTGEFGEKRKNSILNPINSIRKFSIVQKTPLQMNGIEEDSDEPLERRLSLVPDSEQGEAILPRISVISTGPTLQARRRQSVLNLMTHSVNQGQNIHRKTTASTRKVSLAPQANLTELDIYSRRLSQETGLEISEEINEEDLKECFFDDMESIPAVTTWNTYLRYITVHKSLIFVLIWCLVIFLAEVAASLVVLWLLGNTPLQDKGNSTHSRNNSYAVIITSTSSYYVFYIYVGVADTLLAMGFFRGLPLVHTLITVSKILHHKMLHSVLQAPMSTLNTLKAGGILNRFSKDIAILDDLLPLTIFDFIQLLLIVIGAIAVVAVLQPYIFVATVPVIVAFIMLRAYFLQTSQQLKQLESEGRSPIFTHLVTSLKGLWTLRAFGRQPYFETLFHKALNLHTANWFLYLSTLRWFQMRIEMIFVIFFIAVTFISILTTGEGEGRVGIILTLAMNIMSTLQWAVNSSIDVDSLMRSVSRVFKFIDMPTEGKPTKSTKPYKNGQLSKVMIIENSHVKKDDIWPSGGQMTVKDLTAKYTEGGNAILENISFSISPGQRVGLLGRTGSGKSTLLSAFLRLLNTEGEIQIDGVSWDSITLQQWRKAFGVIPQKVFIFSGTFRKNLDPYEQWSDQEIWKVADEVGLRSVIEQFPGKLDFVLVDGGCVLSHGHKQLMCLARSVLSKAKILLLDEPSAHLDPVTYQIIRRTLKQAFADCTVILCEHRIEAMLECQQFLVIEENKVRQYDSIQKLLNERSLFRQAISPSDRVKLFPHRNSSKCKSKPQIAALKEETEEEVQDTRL

The target of this test is CFTR (Homo sapiens, UniProt P13569). The experiment in a line: Short-circuit current (apical Cl− current) analysis on permeabilized CFTR-expressing FRT cells. As to conditions: read-out: Ki of screening hits; dose-response measurements, confirmed by short-circuit current analysis.
As to `CCOC(=O)C1CCN(C(=O)Cn2cnc3sc4c(c3c2=O)CCCC4)CC1`, the inhibitory constant (Ki) was found to be 5 µM.

For `CCOC(=O)C(NC(=O)c1oc(=O)c2ccccc2c1-c1ccc(C)cc1)C(=O)OCC`, the Ki amounted to 7 µM. On to `CCOC(=O)CSc1nc2ccccc2c(=O)n1-c1ccccc1C`, for which the Ki stood at 5 µM.

For orientation: Ki means the equilibrium dissociation constant of an inhibitor or competing ligand from its target.

These data come from patent publication US7888332B2, “Hydrazide-containing CFTR inhibitor compounds and uses thereof” (The Regents of the University of California, priority 2004, dated 2011).
